## Yeast mating assay B: variants of the scFv Ab-14

Antigen: PDVDLGDISGINAS, a 14-residue peptide of the SARS-CoV-2 spike HR2 region.

Ab-14 is the parent antibody, in scFv form: VH, then the linker GGGGSGGGGSGGGGS, then VL. The light chain is unchanged in all variants.
VH: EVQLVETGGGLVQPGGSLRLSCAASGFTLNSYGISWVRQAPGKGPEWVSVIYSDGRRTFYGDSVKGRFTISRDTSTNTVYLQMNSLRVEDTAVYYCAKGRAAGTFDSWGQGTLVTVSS
VL: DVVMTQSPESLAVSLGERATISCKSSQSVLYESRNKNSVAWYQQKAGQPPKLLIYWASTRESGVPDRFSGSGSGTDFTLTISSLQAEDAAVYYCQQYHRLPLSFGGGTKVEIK

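The parent was found by panning a naive human phage display library on the peptide. These sequences belong to a second round, designed from the earlier measurements on random variants of the parent. Several design methods are mixed in this list. The assay is AlphaSeq: two haploid yeast populations carry antibody and antigen on their surface. After mating in shaken culture at 30 °C for 16 h, diploids were selected and their barcode pairs sequenced. The ratio of observed to expected reads was calibrated, replicate by replicate, on BCL2-family standards whose Kd was known from biolayer interferometry. Mating was done six times.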

Variants are written as CDR1, CDR2 and CDR3 of the heavy chain (limits as in the source). Parent: GFTLNSYGIS, VIYSDGRRTFYGDSVK, GRAAGTFDS.
This list holds designs with more than six substitutions.
Scale: log10 of Kd in nM, estimated from mating counts; low values are strong binders.
Averages over replicates are reported, and they cover detected replicates only.
Where no diploid with the target was found in that replicate, the entry reads "nd": below detection, most likely a poor binder, though not proof of it.
The authors averaged sequences with at least three values out of six and counted those with two or fewer as poor binders.

- GFDLNEYGIS | VIYADGMRTAYADSVK | GEVAGTFDL: -0.68, -0.84, -0.35, -1.19, -0.72, -0.55 (mean -0.72)
- GQDLNEYGIS | VIYADGRRQMYANPVK | GHQGGIKLT: nd, nd, nd, nd, nd, nd
- GFDLNEYGIS | VIYADGRRTFYADKVK | GVNAGTFDS: 0.10, -0.30, -0.69, -0.05, -0.57, -0.25 (mean -0.29)
- GFDLNEYGIS | VIYADGKRTAYADTVK | GNVAGTFDV: 0.73, 0.82, 0.46, 0.99, -0.20, 0.05 (mean 0.48)
- GFDLDEYGIS | VIYADGRRTFYQDSVK | GQNAGTFDL: 0.35, -0.53, -0.63, -0.52, 0.13, -0.22 (mean -0.24)
- GFDLDEYGIS | VIYADGVRTAYADNVK | GENAGTFDV: -0.65, -0.63, -0.47, -1.08, -0.47, -0.48 (mean -0.63)
- GFDLNEYGIS | VIYADGRRTFYSDSVK | GANAGTFDQ: -1.12, -1.03, -0.81, -1.02, -1.21, -0.89 (mean -1.01)
- GFDLNEYGIS | VIYADGMRTAYADDVK | GETAGTFDV: -0.60, -0.46, -0.58, -0.57, -0.31, -0.30 (mean -0.47)
- GFDLNEYGIS | VIYADGRRTFYADSVK | GESAGTFDI: nd, nd, nd, 2.62, 2.42, nd (mean 2.52)
- GFNLDEYGVS | VIYADGHRTAYVNTVK | GKTVFVLFD: nd, nd, nd, nd, nd, nd
- GFDLDEYGIS | VIYADGVRTAYSDSVK | GNQAGTFDL: 0.01, -0.14, -0.28, -0.52, -0.23, -0.01 (mean -0.20)
- GFDLNEYGIS | VIYADGRRTFYSDSFK | GEIAGTFDQ: 1.68, -0.05, -0.32, 0.04, -0.35, -0.46 (mean 0.09)
- GFDLNEYGIS | VIYADGRRTAYTDDVK | GEVAGTFDL: -0.41, -0.49, -0.57, -0.44, -0.44, -0.52 (mean -0.48)
- GFDLNEYGIS | VIYADGRRTSYIDSVK | GNQAGTFDS: -0.42, -0.41, -0.19, -0.57, -0.46, -0.42 (mean -0.41)
- GFSLQEYGIS | VIYADGMRAQYTPNVK | GQTGFDYTL: nd, nd, nd, nd, nd, nd
- GFDLNEYGIS | VIYADGMRTAYTDSVK | GEFAGTFDS: 0.69, -0.13, 0.13, -0.45, -0.43, -0.01 (mean -0.03)
- GFDLNEYGIS | VIYADGMRTAYQDSVK | GNVAGTFDI: -0.12, -0.03, 0.11, 0.04, -0.13, -0.06 (mean -0.03)
- GFDLNEYGIS | VIYADGSRTFYADSVK | GENAGSFDQ: -0.05, 1.42, nd, 1.64, 0.49, 0.63 (mean 0.83)
- GFDLTEYGIS | VIYADGRRTEYVDDVK | GQTAGHFLD: nd, nd, nd, nd, nd, nd
- GFDLNEYGIS | VIYADGLRTAYADNVK | GNVAGTFDV: -0.79, -0.94, -0.81, -1.09, -0.53, -0.44 (mean -0.77)
- GDGLEDYGIS | VIYADGRRRAYVENVK | GVYAGYFDV: nd, nd, nd, nd, nd, nd
- GFDLDEYGIS | VIYADGRRTFYSDSVK | GENAGTFDI: -0.23, -0.89, -0.65, -1.05, -0.86, -0.32 (mean -0.67)
- GFDVEEYGIS | VIYADGRRSSYSQSVK | GEYSGTIYV: nd, nd, nd, nd, nd, nd
- GFDLNEYGIS | VIYADGMRTAYIDSVK | GETAGTFDV: -0.03, -0.30, -0.90, -1.11, -0.67, -0.46 (mean -0.58)
- GFDVMEYGIS | VIYADGLRKQYANSVK | GGLRTDFFV: nd, nd, nd, nd, nd, nd
- GFDIDEYGIS | VIYADGRRTFYADSVK | GENAGTFDV: 0.28, -0.24, -0.21, -0.62, -0.73, -0.33 (mean -0.31)
- GFDLNEYGIS | VIYADGRRTFYTDSVK | GGNAGTFDE: 0.28, 0.06, -0.23, -0.15, 0.31, 0.63 (mean 0.15)
- GFDLNEYGIS | VIYADGMRTAYSDSVK | GNVAGTFVQ: -0.25, -0.08, -0.99, -0.49, -0.84, -0.80 (mean -0.57)
- GFDLNEYGIS | VIYADGRRTAYADDVK | GNTAGTFDV: -0.06, -0.28, -0.44, -0.46, -0.41, -0.24 (mean -0.31)
- GFDLNEYGIS | VIYADGRRTAYVDSVK | GQVAGTFDV: -0.26, -0.57, -0.68, -0.79, -0.91, -0.19 (mean -0.57)
- GFNLNEYGIS | VIYADGRRTAYADSVK | GQIAGTFIV: 0.16, 0.88, 0.87, 0.01, 0.56, 0.77 (mean 0.54)
- GFDLNEYGIS | VIYADGMRKAYADNVK | GNNAGTFDV: -0.39, -0.58, -0.47, -0.53, -0.49, -0.38 (mean -0.47)
- GFDLNEYGIS | VIYADGRRTFYADSVK | GNNAGTFVS: 0.66, 0.86, nd, 0.61, 0.86, 1.62 (mean 0.92)
- GFNLNEYGIS | VIYADGMRTFYADSVK | GGNAGTFDV: -0.02, 0.41, 0.23, -0.12, -0.13, 0.34 (mean 0.12)
- GFDLNEYGIS | VIYADGVRTFYSDSVK | GQLAGTFDS: -0.46, 0.04, 0.69, -0.28, -0.69, 0.19 (mean -0.09)
- GFDLNEYGIS | VIYADGRRTFYSDSVK | GENAGTFDV: -0.42, -0.28, -0.59, -0.42, -0.54, -0.40 (mean -0.44)
- GFDLNEYGIS | VIYADGSRTAYADNVK | GEVAGTFDV: -0.02, 0.02, -0.01, -0.11, -0.11, 0.39 (mean 0.03)
- GYDLNEYGIS | VIYADGIRVAYQNQVK | GNINGSFTF: nd, nd, nd, nd, nd, nd
- GFSLDEYGIS | VIYADGMRQSYCENVK | GEHGCTFGL: nd, nd, nd, nd, nd, nd
- GFNLNEYGIS | VIYADGRRTFYTDDVK | GEAAGTFDL: nd, nd, -0.17, -1.18, -1.48, nd (mean -0.95)
- GFDINEYGIS | VIYADGRRTAYADSVK | GNQGGTFDL: 0.01, -0.02, -0.27, -0.09, 0.58, 0.00 (mean 0.03)
- GFDLNEYGIS | VIYADGMRTAYADSVK | GNEAGTFDM: -0.45, -0.43, 1.85, -0.28, -0.29, -0.42 (mean 0.00)
- GFGLNEYGIS | VIYADGQRKFYADNVK | GVFGEDGQV: nd, nd, nd, nd, nd, nd
- GFDLNEYGIS | VIYADGRRTFYADSVK | GNVAGTFDE: -0.49, -0.63, -0.52, -0.52, -0.63, -0.41 (mean -0.53)
- GFNLDEYGIS | VIYADGVRTAYADSVK | GETAGTFDV: 0.36, 0.17, -0.27, 0.26, -0.32, 0.12 (mean 0.05)

Picked from the list: the 5 lowest averages where every replicate gave a value.

| CDR-H1 | CDR-H2 | CDR-H3 | log10 Kd, replicates | log10 Kd (nM), mean |
|---|---|---|---|---|
| GFDLNEYGIS | VIYADGRRTFYSDSVK | GANAGTFDQ | -1.12, -1.03, -0.81, -1.02, -1.21, -0.89 | -1.01 |
| GFDLNEYGIS | VIYADGLRTAYADNVK | GNVAGTFDV | -0.79, -0.94, -0.81, -1.09, -0.53, -0.44 | -0.77 |
| GFDLNEYGIS | VIYADGMRTAYADSVK | GEVAGTFDL | -0.68, -0.84, -0.35, -1.19, -0.72, -0.55 | -0.72 |
| GFDLDEYGIS | VIYADGRRTFYSDSVK | GENAGTFDI | -0.23, -0.89, -0.65, -1.05, -0.86, -0.32 | -0.67 |
| GFDLDEYGIS | VIYADGVRTAYADNVK | GENAGTFDV | -0.65, -0.63, -0.47, -1.08, -0.47, -0.48 | -0.63 |

Of ten entries with the parent sequence, four were seen in most replicates (averages 0.34 to 2.37), three in one and three in none, so single entries are noisy.
Values of this round are not directly comparable with the first-round values of the same sequences.
Empty control strains, which show no peptide, gave a signal in 1% of pairings with all heavy chain designs; the median was 2.08 and 95% of these signals were weaker than 0.84. No background was subtracted.

Source: Li et al. 2023 (doi:10.1038/s41467-023-39022-2), MIT Lincoln Laboratory and A-Alpha Bio; data file from the FLAb repository.